The source of these data is PMC10041529 (Journal of Medicinal Chemistry, 2023).

Amino acid sequences for entries named in this document (tags omitted). Residues count along the entry.
UniProt P49841, 26-383: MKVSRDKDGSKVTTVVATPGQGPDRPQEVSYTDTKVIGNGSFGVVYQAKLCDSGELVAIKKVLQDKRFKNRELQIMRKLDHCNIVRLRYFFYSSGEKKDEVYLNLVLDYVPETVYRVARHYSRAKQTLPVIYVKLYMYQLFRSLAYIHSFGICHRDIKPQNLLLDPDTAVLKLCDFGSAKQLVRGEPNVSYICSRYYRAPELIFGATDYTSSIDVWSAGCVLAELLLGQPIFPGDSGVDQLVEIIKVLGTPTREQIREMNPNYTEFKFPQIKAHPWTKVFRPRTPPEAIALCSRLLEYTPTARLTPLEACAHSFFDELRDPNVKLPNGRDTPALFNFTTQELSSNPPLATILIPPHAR

The structures appear in SMILES notation.

This test deals with T1, GSK3β-mediated phosphorylation of Cyclin D1 (Homo sapiens, UniProt P49841).
T1 construct: we used only GSK3β (26–383) kinase domain constructs in our cellular studies; expressed in transfected cells; host or cells: HEK293T (pcDNA3.1, transient)
Nature of the test: Cyclin D1 phosphorylation profile (Western Blot) in transfected HEK293T cells. The format is cell-based. The following applies: HA-Cyclin D1 + FLAG-GSK3β, 10 μM, 3 h. Background: A western blot detects proteins with antibodies after separation by electrophoresis.

Consider `O=C(O)c1ccc2c(c1)nc(Nc1cccc(Cl)c1)c1ccncc12` [CX-4945, 5-(3-Chlorophenylamino)benzo[c][2,6]naphthyridine-8-carboxylic Acid], for which the “effect on GSK3β-mediated Cyclin D1 phosphorylation” value is on record as “complete inhibition”.
